GIV-Gai inh = blocks GIV peptide binding to rat Galpha-i3. P08753. Galpha-i3/FITC-GIV peptide fluorescence polarization, 90 min; stronger effect = lower value; scaled: aluminum fluoride 0%, vehicle 100%. percent of control (FP), % (test concentration not listed). 0.42% of 210,000 active. AID 1224905;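 active = replicate mean at 85% of control or lower, very high polarization wells dropped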;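 note: wells of about 15 µL received 100 nL stock; the first replicate is given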
HCMV NEC inh = inhibitors of HCMV UL50-UL53 nuclear egress complex interaction | HTRF UL50-UL53 interaction, normalized percent inhibition | hit rate 0.15% among 190,000 | AID 1918969 | inhibition, % (test concentration not listed); in the data active = inhibition above about 27%, passing the limit was not always enough
GIV Gai FP conf = GIV-Galpha-i3 inhibition, FP confirmation; FITC-GIV peptide binding to Galphai3, fluorescence polarization; active compounds read low; hit rate 38% among 580; fluorescence polarization, mP at 100 µM; AID 1259350; shares compounds with GIV-Gai inh;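 active = inhibition score of 15 or more, meaning 100 minus mean polarization as percent of control over three replicates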;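 also: lower mP means peptide displaced from Galphai3 so more inhibition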
GIV Gai AS conf = confirmation of inhibitors of GIV binding to human Galpha-i3 | shares compounds with GIV-Gai inh | AlphaScreen Galphai3-GIV binding, purified proteins, 90 min; active compounds read low | AlphaScreen counts at 100 µM | hit rate 39% among 580;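 active = inhibition score at or above a set limit, where the score is 100 minus the three-replicate mean percent of control signal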
* = called active by the depositor; . = no result. This is a sample that favours compounds with a hit; in the whole collection about 0.46% have one here.

1: Cc1ccc(C(=O)NCCn2ccc3ccccc32)cc1
2: COc1ccccc1NC(=O)c1c(N=Cc2c(O)ccc3ccccc23)cnn1C
3: Oc1ccc2ccccc2c1C=Nc1cccn2cc(-c3ccccc3)nc12
4: O=C(Cn1c(=O)c2ccccc2n2c(=S)sc(-c3ccc(Br)cc3)c12)N1CCCC1
5: CCN(CC)C(=O)Cn1c(=O)c2ccccc2n2c(=S)sc(-c3ccc(Br)cc3)c12
6: O=C(Cn1c(=O)c2ccccc2n2c(=S)sc(-c3ccccc3)c12)NCC1CCCO1 (stereo not drawn)
7: CCN(CC)C(=O)Cn1c(=O)c2ccccc2n2c(=S)sc(-c3ccccc3F)c12
8: O=C(Cn1cc(/C=c2/sc3nc4ccccc4n3c2=O)c2ccccc21)Nc1ccccc1

Screen / compound no.	1	2	3	4	5	6	7	8
GIV-Gai inh	94	108	-9.9*	94	100	78*	121	108
HCMV NEC inh	.	.	.	-19	-29	-16	-41	.
GIV Gai FP conf	.	.	9.8*	.	94	72	.	.
GIV Gai AS conf	.	.	37990	.	27284	23082	.	.

9: COc1ccc(/C=c2/sc3nc4ccccc4n3c2=O)cc1
10: O=C(Cn1cc(/C=c2/sc3nc4ccccc4n3c2=O)c2ccccc21)N1CCCC1
11: COc1ccc(OC)c(/C=c2\sc3nc4ccccc4n3c2=O)c1
12: COC(=O)c1ccc2c(=O)n(Cc3ccc(C)cc3)c(N3CCN(c4cccc(C)c4)CC3)nc2c1
13: Cc1ccc(N(C)S(=O)(=O)c2ccc(-c3cc(C(F)(F)F)no3)s2)cc1
14: Cc1ccc(NC(=O)C2CCN(c3ncnc4onc(C)c34)CC2)c(C)c1
15: CC1=CC(=Nc2c(C)n(C)n(-c3ccccc3)c2=O)c2ccccc2C1=O
16: Cc1c(N=c2c(=O)c3ccccc3c2=O)c(=O)n(-c2ccccc2)n1C

Screen / compound no.	9	10	11	12	13	14	15	16
GIV-Gai inh	.	80*	89	103	104	108	107	62*
HCMV NEC inh	9	-27	-7	.	-17	2	-23	.
GIV Gai FP conf	.	78	52*	.	.	.	.	47*
GIV Gai AS conf	.	43306	38058	.	.	.	.	26896

17: CCN(CC)c1ccc2c(c1)CCCN2
18: O=S(=O)(c1ccc2c(c1)CCCN2)N1CCCCC1
19: N#C/C(=C/Nc1cccc2ccccc12)c1nc(-c2ccccc2)cs1
20: Cc1ccc(-n2nc3c(n2)/C(=N/O)CCC3)cc1
21: COc1ccc(-c2nc3c(n2O)CCC/C3=N\O)cc1
22: CCN(Cc1ccccc1)C(=O)c1cc2c(=O)[nH]c3ccc(C)cc3c2s1
23: CN(Cc1ccccc1)C(=O)c1cc2c(=O)[nH]c3ccccc3c2s1
24: Cc1cc2nc3c4cccc5cccc(c(=O)n3c2cc1C)c54

Screen / compound no.	17	18	19	20	21	22	23	24
GIV-Gai inh	53*	.	.	79*	100	103	87	101
HCMV NEC inh	-16	-33	-2	47*	-35	-13	0	.
GIV Gai FP conf	63	.	.	66	.	.	68	.
GIV Gai AS conf	11170*	.	.	23948*	.	.	48153	.

25: Nc1nc2c3cccc4cccc(c(=O)n2n1)c43
26: O=C(CC1SC(=O)NC1=O)Nc1cccc(NC(=O)CC2SC(=O)NC2=O)c1 (stereo not drawn)
27: O=C(CC1SC(=O)NC1=O)Nc1ccc(O)cc1 (stereo not drawn)
28: Cc1ccc(-c2cc(C(=O)OCC(=O)Nc3ccc(S(N)(=O)=O)cc3)c3ccccc3n2)cc1
29: COc1ccc(CNC(=O)c2ccc3c(c2)C(=O)N(Cc2ccco2)C3=O)cc1
30: CCN(CC)CCCC(C)Nc1c2ccc(Cl)cc2nc2ccc(OC)cc12 (stereo not drawn)
31: COc1ccc(-c2ccc3cc(Cl)ccc3n2)c(OC)c1
32: Cc1nn(-c2ccc(Cl)cc2)c2sc(C(=O)NC3CCCc4ccccc43)cc12 (stereo not drawn)

Screen / compound no.	25	26	27	28	29	30	31	32
GIV-Gai inh	80*	76*	103	103	107	44*	.	102
HCMV NEC inh	-120	-31	-14	0	.	-62	-24	.
GIV Gai FP conf	75	62*	.	.	.	41*	.	.
GIV Gai AS conf	24808	9767*	.	.	.	32214	.	.

33: Cc1nn(-c2ccccc2)c2sc(C(=O)NC(=S)NC3CCSC3=O)cc12 (stereo not drawn)
34: CCCCOc1ccc(C(=O)Nc2ccc3c(c2)CCCN3C(C)=O)cc1
35: CCc1nc2oc(C(=O)c3ccccc3)c(N)c2c2c1COC(C)(C)C2
36: CCc1nc2oc(C(=O)c3ccc(Cl)cc3)c(N)c2c2c1COC(C)(C)C2
37: COc1ccc(S(=O)(=O)N(Cc2cc3c(C)cc(C)cc3[nH]c2=O)CC2COCCO2)cc1 (stereo not drawn)
38: CC(=O)OCC(=O)[C@]12OC(C)(C)OC1C[C@H]1[C@@H]3CC(F)C4=CC(=O)C=C[C@]4(C)[C@]3(F)C(O)C[C@@]12C (stereo partly drawn)
39: Fc1ccc(N2CCN(C3C4CC5CC(C4)CC3C5)CC2)cc1 (stereo not drawn)
40: COCCN1C(=O)c2ccccc2C(C(=O)NCc2ccccn2)C1c1ccc(F)cc1 (stereo not drawn)

Screen / compound no.	33	34	35	36	37	38	39	40
GIV-Gai inh	85*	101	100	80*	103	.	105	103
HCMV NEC inh	.	-6	.	-27	-29	11	-9	-5
GIV Gai FP conf	64	.	.	77	.	.	.	.
GIV Gai AS conf	15795*	.	.	46961	.	.	.	.

Shown with values under each structure: 4 of the compounds above
Values run as follows: GIV-Gai inh, HCMV NEC inh, GIV Gai FP conf, GIV Gai AS conf
37. COc1ccc(S(=O)(=O)N(Cc2cc3c(C)cc(C)cc3[nH]c2=O)CC2COCCO2)cc1 (stereo not drawn)
→ 103, -29, ., .
38. CC(=O)OCC(=O)[C@]12OC(C)(C)OC1C[C@H]1[C@@H]3CC(F)C4=CC(=O)C=C[C@]4(C)[C@]3(F)C(O)C[C@@]12C (stereo partly drawn)
→ ., 11, ., .
39. Fc1ccc(N2CCN(C3C4CC5CC(C4)CC3C5)CC2)cc1 (stereo not drawn)
→ 105, -9, ., .
40. COCCN1C(=O)c2ccccc2C(C(=O)NCc2ccccn2)C1c1ccc(F)cc1 (stereo not drawn)
→ 103, -5, ., .

Next compounds:
41: O=C(NCCc1ccccc1)c1sc(=S)n2c1[nH]c(=O)c1ccccc12
42: O=C(NC1CCCCC1)c1sc(=S)n2c1[nH]c(=O)c1ccccc12
43: CCc1c(C)nc(-n2nc(C)cc2NC(=O)c2ccc(Br)cc2)[nH]c1=O
44: Cc1ccccc1CSc1cnc2ccccc2n1
45: COc1ccc(C(=O)Oc2ccc(C=C3C(=O)NC(=O)NC3=O)cc2Cl)cc1
46: COc1cc(C=C2C(=O)NC(=O)NC2=O)ccc1OC(=O)c1cc(F)c(F)cc1Cl
47: CCOC(=O)C1=C(C(=O)OCC)SC(=C2C(=S)C(C)(C)N(C(=O)C(C)C)c3c(C)cccc32)S1
48: Cc1[nH][nH]c(=O)c1C=Nc1ccc(O)c(C(=O)O)c1

Screen / compound no.	41	42	43	44	45	46	47	48
GIV-Gai inh	86	101	96	102	76*	101	103	88
HCMV NEC inh	.	-43	-26	-16	76*	-3	.	4
GIV Gai FP conf	65	.	.	.	60	.	.	63
GIV Gai AS conf	13551*	.	.	.	24807*	.	.	6341*

49: Cc1cc(C=Nc2ccc(O)c(C(=O)O)c2)c(C)n1-c1ccc(N(C)C)cc1
50: COc1cc(Nc2c3c(nc4nc(C)nn24)CCC3)cc(OC)c1
51: Cc1ccc(C(=O)c2cc(F)c(N3CCOCC3)cc2Cl)cc1C
52: Cc1cc(N2CCOCC2)c(F)cc1C(=O)c1ccccc1
53: O=C(O)CCC1(CCC(=O)O)c2ccccc2-c2nc3ccccc3cc21
54: O=c1c(=NNc2ccccc2)c(=O)c2ccccc12
55: O=c1c(=NNc2nn[nH]n2)c(=O)c2ccccc12
56: Cc1nc(N=Nc2cc(S(=O)(=O)O)c3cc([N+](=O)[O-])cc(S(=O)(=O)O)c3c2)c(COP(=O)(O)O)c(C=O)c1O

Screen / compound no.	49	50	51	52	53	54	55	56
GIV-Gai inh	.	104	105	92	108	111	40*	17*
HCMV NEC inh	-12	11	.	-23	.	-76	-12	34
GIV Gai FP conf	.	.	.	68	.	.	39*	53*
GIV Gai AS conf	.	.	.	43945	.	.	17853*	3265*

57: COc1ccc(C(c2c(C)[nH]n(-c3ccccc3)c2=O)c2c(C)[nH]n(-c3ccccc3)c2=O)cc1
58: Cc1[nH]n(-c2ccccc2)c(=O)c1C(c1cc(Cl)ccc1O)c1c(C)[nH]n(-c2ccccc2)c1=O
59: Cc1[nH]n(-c2ccccc2)c(=O)c1C(c1ccc(F)cc1)c1c(C)[nH]n(-c2ccccc2)c1=O
60: CCOc1cc(C(c2c(C)[nH]n(-c3ccccc3)c2=O)c2c(C)[nH]n(-c3ccccc3)c2=O)ccc1OCc1ccc(Cl)cc1

Screen / compound no.	57	58	59	60
GIV-Gai inh	91	100	72*	81*
HCMV NEC inh	.	-23	.	.
GIV Gai FP conf	.	.	61	52*
GIV Gai AS conf	.	.	24882*	31576
